Consider four substances from patent US11116757B2 (priority 2015, dated 2021).

By UniProt entry, the sequences of proteins in these tests, tags left out. Residues count along the entry.
UniProt Q96GG9, 60-248 limits assumed: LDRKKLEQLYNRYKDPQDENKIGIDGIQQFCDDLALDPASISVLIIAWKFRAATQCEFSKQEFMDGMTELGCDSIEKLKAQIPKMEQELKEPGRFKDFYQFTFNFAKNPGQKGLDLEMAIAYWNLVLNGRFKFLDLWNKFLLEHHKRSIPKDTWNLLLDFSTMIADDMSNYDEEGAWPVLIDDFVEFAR

By IC50 is commonly meant the concentration needed to halve the response being measured.

The test has as its target DCN1-UBC12 interaction (Homo sapiens (Human), UniProt Q96GG9). Format: binding. The conditions noted are these: read-out: TR-FRET IC50. In general terms: TR-FRET usually uses a lanthanide donor and a delayed reading to cut background.
“1-Benzyl-3-(3-(Trifluoromethyl)Phenyl)-1-(1-(3,3,3-Trifluoropropyl)Piperidin-4-yl)Urea [A76]”: the half-inhibitory concentration (IC50) amounted to 0.757 µM.

On to “1-Benzyl-1-(Piperidin-4-yl)-3-(3-(Trifluoromethyl)Phenyl)Urea [A264]”, for which the IC50 is > 65.4 µM.

On to “1-Benzyl-1-(1-Butylpiperidin-4-yl)-3-(3-(Trifluoromethyl)Phenyl)Urea [A37]”, for which the IC50 was 0.207 µM.

On to “1-Benzyl-1-(1-(Cyclopentylmethyl)Piperidin-4-yl)-3-(3-(Trifluoromethyl)Phenyl)Urea [A150]”, for which the IC50 came out at 5.4 µM.
